# Only a part is listed here, and it is no random draw. Results filed as inconclusive are left out. The source made the active and inactive calls. Calls come from the whole dose curve; as a rule, active = well fitted activation curve with a large enough effect in the main read-out, with a control signal flat (not every such curve was filed as active); inconclusive = small, poorly fitted or top-dose-only effect, or a change in a side signal; inactive = no such curve, though single readings can be large or run the other way; reference of the percent scale not stated here.
# Chains of the proteins cited; added tags and fusions are not shown.
# UniProt P16473, whole entry, looked up: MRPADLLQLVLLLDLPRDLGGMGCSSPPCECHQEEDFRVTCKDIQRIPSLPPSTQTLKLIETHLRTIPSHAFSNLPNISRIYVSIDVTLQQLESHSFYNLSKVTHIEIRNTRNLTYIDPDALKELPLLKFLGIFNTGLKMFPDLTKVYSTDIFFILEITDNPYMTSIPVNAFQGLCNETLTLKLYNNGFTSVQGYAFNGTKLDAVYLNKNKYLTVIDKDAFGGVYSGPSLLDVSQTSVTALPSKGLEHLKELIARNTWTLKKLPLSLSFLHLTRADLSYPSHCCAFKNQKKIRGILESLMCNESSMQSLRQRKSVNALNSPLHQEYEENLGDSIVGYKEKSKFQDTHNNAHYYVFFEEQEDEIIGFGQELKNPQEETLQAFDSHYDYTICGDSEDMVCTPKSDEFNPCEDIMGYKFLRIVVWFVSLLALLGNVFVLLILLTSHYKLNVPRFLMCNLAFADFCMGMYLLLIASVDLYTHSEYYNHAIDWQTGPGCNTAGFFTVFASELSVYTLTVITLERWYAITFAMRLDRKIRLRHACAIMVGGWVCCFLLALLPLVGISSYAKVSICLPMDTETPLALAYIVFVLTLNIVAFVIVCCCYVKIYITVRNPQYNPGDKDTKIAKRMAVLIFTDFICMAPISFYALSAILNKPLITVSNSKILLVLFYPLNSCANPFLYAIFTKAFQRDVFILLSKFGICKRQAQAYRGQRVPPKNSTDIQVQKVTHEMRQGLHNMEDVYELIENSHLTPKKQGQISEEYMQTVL
# Biological target: Thyrotropin receptor (Homo sapiens) (UniProt P16473)
# Assay: qHTS Assay for Agonists of the Thyroid Stimulating Hormone Receptor;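 note: the control signal comes from parental cells without the receptor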
# Settings: HEK293-CNG-TSHR cells (CNG channel as cAMP sensor), membrane potential dye, cAMP
# Potency is the fitted concentration of half-maximal effect.
row,SMILES,Potency
1,Cc1nn(-c2ccccc2)c2c1P(=O)(N1CCOCC1)N(C)C(c1ccccc1)=N2 (stereo unspecified),active: 25.1 µM
